Compound activity (PubChem)
Compounds with a hit are over-represented: about 4.2% of the library has one in this group of screens.
ALR inh – human ALR oxidase inhibition via reduced H2O2; purified ALR, DTT oxidation, H2O2 HRP-luminol luminescence; inhibition, % (concentration not given with the values); 290,000 tested, 3.8% active; AID 485317;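 active = mean and each replicate at 75% or more; inconclusive = only one of the two met; inactive = neither met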;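 also: stock transfer was 7.5 nL into about 7.5 µL; 0% = neutral wells and 100% = wells with inactivated enzyme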
HDAC3 inhib – inhibitors of human histone deacetylase 3. recombinant HDAC3, fluorogenic peptide/trypsin coupled, fluorescence. inhibition, % at 8.3 µM. hit rate 0.15% among 320,000; in the data active means inhibition above about 26%, passing the limit was not always enough; inconclusive means no clear call, values can overlap the other calls
NALP1 yeast inh – NALP1 inhibition | S. cerevisiae NALP1/ASC/caspase-1 growth, X-gal OD620, 72 h | inhibition, % at 10 µM | hit rate 0.61% among 280,000 | AID 2071; in the data active means inhibition mostly above about 24%, no sharp cut-off; inactive means mostly below about 32%
MC4R ag barr – human MC4R agonism via beta-arrestin | U2OS MC4R beta-arrestin complementation, luminescence; percent of melanotan II response, DMSO zero | activation, % at 8.9 µM | P32245 | hit rate 0.98% among 360,000 | AID 540308;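 active means activation above a per-plate cutoff, the mean activation of sample wells on that plate plus 3 SD, cut at about 8% in these data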
MC4R antagonist – antagonists of human melanocortin 4 receptor (MC4R); P32245; MC4R-expressing cells, MTII-stimulated cAMP, LANCE TR-FRET; inhibition, % at 6.5 µM; hit rate 0.48% among 360,000; AID 540295;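 active means inhibition above its plate's cutoff, the mean of tested wells on that plate plus 3 SD, cut at about 29% in these data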;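 further: 0% = Melanotan II alone and 100% = Melanotan II plus saturating MCL0020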
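system = U2OS cells with stable human MC4R expression | also added = Melanotan II challenge after compound preincubation | dosing = one concentration, 6.5 µM nominal | incubation = compound 30 min, challenge 1 h, detection 1 h | measured by = TR-FRET with Eu-cAMP and labeled anti-cAMP, 671 nm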
Yeast UUG start – alters start codon recognition fidelity in yeast; S. cerevisiae UUG-firefly luciferase reporter, luminescence/redox ratio; activity score, % at 18.7 µM; hit rate 0.13% among 350,000;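 active = replicate mean at a twofold rise or more, about +100% in these data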;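 also: firefly luciferase made from a UUG start codon reports start codon fidelity; reporter light over untreated wells divided by growth signal over untreated wells; some hits fall short of that in this replicate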
* hit, by the source's call; ? = inconclusive; . = not tested or not shown.

The opening two records as a preview:
1) CCn1c(=O)n(CC)c2cc(N3CCCC3)c(NC(=O)c3ccccc3)cc21
2) CCn1c(=O)n(CC)c2cc(N3CCCC3)c(NC(=O)c3ccccc3C)cc21
Compound | 1 | 2
ALR inh | 97* | 99*
HDAC3 inhib | 0 | 5
NALP1 yeast inh | 12 | 3
MC4R ag barr | -2 | 0
MC4R antagonist | 13 | -10
Yeast UUG start | -8 | -1

The whole of this part, from the start:
1) CCn1c(=O)n(CC)c2cc(N3CCCC3)c(NC(=O)c3ccccc3)cc21
2) CCn1c(=O)n(CC)c2cc(N3CCCC3)c(NC(=O)c3ccccc3C)cc21
3) CCn1c(=O)n(CC)c2cc(N3CCCC3)c(NC(=O)c3ccc(C)cc3)cc21
4) CCNC(=O)Nc1ccc2c(c1)C(=O)N(C)[C@@H]1CC[C@@H](CC(=O)NCc3cccc(F)c3)O[C@@H]1CO2
5) Cc1ccc(CCNC(=O)Cn2ncc3c([nH]c4ccccc43)c2=O)cc1
Compound | 1 | 2 | 3 | 4 | 5
ALR inh | 97* | 99* | 99* | . | 1
HDAC3 inhib | 0 | 5 | ? | . | -1
NALP1 yeast inh | 12 | 3 | 2 | . | 12
MC4R ag barr | -2 | 0 | 0 | . | -1
MC4R antagonist | 13 | -10 | 16 | . | -2
Yeast UUG start | -8 | -1 | -4 | -13 | -19

6) O=C(Cn1ncc2c([nH]c3ccccc32)c1=O)NCC1CCN(Cc2ccc(F)cc2)CC1
7) CC(=O)Nc1ccc(NC(=O)CSc2ncc(C(=O)Nc3ccccc3)c(=O)n2C)cc1
8) COc1cc(NC(=O)CSCc2cnn(-c3ccccc3)c2-n2cccc2)cc(OC)c1
9) CSc1nccn1CC(=O)Nc1ccc(F)cc1
10) CCOc1ccc(NC(=O)CSCc2cnn(-c3ccccc3)c2-n2cccc2)cc1
Compound | 6 | 7 | 8 | 9 | 10
ALR inh | 0 | 99* | . | 98* | 99*
HDAC3 inhib | -3 | -11 | 3 | 5 | 1
NALP1 yeast inh | 29* | . | -21 | -9 | 0
MC4R ag barr | 0 | -4 | 2 | 0 | 2
MC4R antagonist | -3 | 27 | 21 | 0 | -2
Yeast UUG start | -9 | -12 | -12 | -11 | -2

3 of the entries above in order of their number in MC4R ag barr, falling:
item	molecule	MC4R ag barr
8	COc1cc(NC(=O)CSCc2cnn(-c3ccccc3)c2-n2cccc2)cc(OC)c1	2
1	CCn1c(=O)n(CC)c2cc(N3CCCC3)c(NC(=O)c3ccccc3)cc21	-2
7	CC(=O)Nc1ccc(NC(=O)CSc2ncc(C(=O)Nc3ccccc3)c(=O)n2C)cc1	-4

(cont.)
11) Cn1c(SCC(=O)NCc2ccccc2)ncc(C(=O)Nc2ccccc2)c1=O
12) CN(CC(=O)Nc1ccc(F)cc1)C(=O)CSc1nccn1C
13) Cn1ccnc1SCC(=O)Nc1cccc(C(F)(F)F)c1
14) Cn1ccnc1SCC(=O)Nc1cccc(O)c1
15) CC(=O)Nc1ccc2c(c1)C(=O)N(C)[C@H]1CC[C@@H](CC(=O)NCc3ccccc3Cl)O[C@H]1CO2
Compound | 11 | 12 | 13 | 14 | 15
ALR inh | 0 | -4 | 100* | -10 | .
HDAC3 inhib | -4 | 2 | -3 | -2 | .
NALP1 yeast inh | . | . | 13 | 6 | .
MC4R ag barr | -3 | -1 | 2 | 1 | .
MC4R antagonist | 4 | -6 | 21 | 4 | .
Yeast UUG start | -12 | . | -15 | -16 | 2

16) O=C(C[C@@H]1CC[C@H](NC(=O)Cc2ccccn2)[C@H](CO)O1)NCCc1ccccc1
17) CCOc1ccc(NC(=O)CC)cc1
18) CCCCOc1cccc(NC(=O)CSc2nccn2C)c1
19) CCOc1ccc(NC(=O)CSC(N)=O)cc1
20) COc1ccc(NC(=O)CSc2nc3cccnc3n2C)cc1
Compound | 16 | 17 | 18 | 19 | 20
ALR inh | . | -6 | 99* | 99* | 99*
HDAC3 inhib | . | 4 | -6 | 16 | -4
NALP1 yeast inh | . | 9 | 9 | 9 | 3
MC4R ag barr | . | . | -1 | -2 | -2
MC4R antagonist | . | . | 1 | -17 | 8
Yeast UUG start | 1 | . | -13 | 5 | .

21) COC(=O)c1ccc(NC(=O)CSc2nc3cccnc3n2C)cc1
22) Cn1ccnc1SCC(=O)Nc1ccc(Oc2ccccc2)cc1
23) Cn1cnnc1SCC(=O)Nc1ccc(Oc2ccccc2)cc1
24) COc1ccc(NC(=O)Nc2ccc3c(c2)CC(=O)N([C@H](C)CO)C[C@@H](C)[C@H](CN(C)S(=O)(=O)c2cccs2)O3)cc1
25) CCC(=O)N1[C@H](CO)[C@@H](c2ccc(C3=CCCCC3)cc2)[C@@H]1CN(C)C(C)=O
Compound | 21 | 22 | 23 | 24 | 25
ALR inh | -28 | 99* | 1 | . | .
HDAC3 inhib | -5 | -5 | 3 | . | .
NALP1 yeast inh | 16 | -2 | 16 | . | .
MC4R ag barr | 1 | -1 | -2 | . | .
MC4R antagonist | 0 | 5 | -1 | . | .
Yeast UUG start | -19 | -13 | -15 | -1 | 2

26) CCCNC(=O)C[C@H]1CC[C@H]2[C@H](COc3ccc(NC(=O)Nc4cccc(C)c4)cc3C(=O)N2C)O1
27) O=C(CSC1=NCCN1)Nc1cccc(C(F)(F)F)c1
28) CCOc1ccc(NC(=O)CSc2nccn2C)cc1
29) CCOc1ccc(NC(=O)C(C)Sc2nccn2C)cc1 (stereo not given)
30) CCC(=O)N(C)C[C@@H]1Oc2cc(C#CCC3CCCC3)ccc2S(=O)(=O)N([C@@H](C)CO)C[C@H]1C
Compound | 26 | 27 | 28 | 29 | 30
ALR inh | . | 100* | 99* | 37 | .
HDAC3 inhib | . | -1 | . | 0 | .
NALP1 yeast inh | . | 0 | 8 | 0 | .
MC4R ag barr | . | 0 | 0 | -1 | .
MC4R antagonist | . | 0 | -2 | 6 | .
Yeast UUG start | 18 | . | -13 | -18 | -7

31) COCC(=O)Nc1ccc2c(c1)[C@H]1C[C@@H](CC(=O)NC3CCCC3)O[C@H](CO)[C@H]1O2
32) O=c1oc2ccccc2cc1-c1csc(NN=C2CCCCC2)n1
33) Cc1cccc(C(=O)Nc2nnc(S(=O)(=O)N(C)Cc3ccco3)s2)c1
34) Cc1cccc(NS(=O)(=O)c2nnc(NC(=O)c3cccc(C)c3)s2)c1
35) CS(=O)(=O)c1cccc(C(=O)Nc2nnc(C3=COCCO3)o2)c1
Compound | 31 | 32 | 33 | 34 | 35
ALR inh | . | 87* | 94* | 59 | 99*
HDAC3 inhib | . | 4 | -2 | 7 | -12
NALP1 yeast inh | . | 6 | 16 | 19 | .
MC4R ag barr | . | -1 | -3 | -1 | 1
MC4R antagonist | . | 6 | 6 | -4 | 2
Yeast UUG start | -7 | -21 | -17 | -13 | .

36) O=C(Nc1nnc(C2=COCCO2)o1)c1ccc(S(=O)(=O)N2CCCC2)cc1
37) O=C(Nc1nnc(-c2cccs2)o1)c1cccc(F)c1
38) O=C(Nc1nnc(-c2ccncc2)o1)c1ccccc1
39) O=C(Nc1nnc(-c2cccs2)o1)c1cccc(Oc2ccccc2)c1
40) CCC1CCCCN1S(=O)(=O)c1ccc(C(=O)Nc2nnc(C3=COCCO3)o2)cc1 (stereo not given)
Compound | 36 | 37 | 38 | 39 | 40
ALR inh | 2 | . | 87* | . | 95*
HDAC3 inhib | . | 5 | 2 | 0 | 16
NALP1 yeast inh | 6 | . | -14 | 38* | -13
MC4R ag barr | -2 | -3 | 1 | -2 | -3
MC4R antagonist | 2 | -1 | -4 | 3 | -1
Yeast UUG start | . | -19 | . | -27 | -14

41) Cc1ccc(C(=O)Nc2nnc(-c3ccncc3)o2)cc1
42) C[C@@H]1CN([C@@H](C)CO)C(=O)c2cccc(NC(=O)C3CCOCC3)c2O[C@@H]1CN(C)S(=O)(=O)c1ccc(Cl)cc1
43) CCCCN(C)S(=O)(=O)c1ccc(C(=O)Nc2nnc(C3=COCCO3)o2)cc1
44) CC1CCCCN1S(=O)(=O)c1ccc(C(=O)Nc2nnc(-c3ccccc3Cl)o2)cc1 (stereo not given)
45) CC1CCCCN1S(=O)(=O)c1ccc(C(=O)Nc2nnc(-c3ccncc3)o2)cc1 (stereo not given)
Compound | 41 | 42 | 43 | 44 | 45
ALR inh | -11 | . | 91* | -1 | 81*
HDAC3 inhib | 3 | . | 5 | -1 | 3
NALP1 yeast inh | 4 | . | 14 | -7 | -6
MC4R ag barr | -2 | . | 1 | 1 | -2
MC4R antagonist | 0 | . | 0 | 15 | 0
Yeast UUG start | . | 7 | . | -11 | .

46) C[C@H]1CN([C@@H](C)CO)C(=O)c2cc(NC(=O)Nc3ccc(C(F)(F)F)cc3)ccc2O[C@H]1CN(C)C(=O)Nc1ccccc1
47) O=C(C[C@@H]1C=C[C@@H](NC(=O)Nc2ccccc2F)[C@H](CO)O1)NCc1ccc(F)cc1
48) O=C1NCC(c2ccccc2)C1C(=O)N/N=C\c1ccc(-c2ccc(Cl)c(Cl)c2)o1 (stereo not given)
49) O=C1NCC(c2ccccc2)C1C(=O)N/N=C/c1ccc(Cl)s1 (stereo not given)
50) Nc1nc(-c2ccc3c(c2)CCCC3)c(CC(=O)O)s1
Compound | 46 | 47 | 48 | 49 | 50
ALR inh | . | . | -5 | -7 | 35
HDAC3 inhib | . | . | 18 | 6 | -1
NALP1 yeast inh | . | . | -8 | 37* | 37*
MC4R ag barr | . | . | 7 | -2 | -1
MC4R antagonist | . | . | -5 | -2 | 12
Yeast UUG start | -5 | -11 | -9 | . | -16
